{"sequences": {"note": "Amino acid sequences for entries named in this document (tags omitted).", "UniProt P37288, whole entry": "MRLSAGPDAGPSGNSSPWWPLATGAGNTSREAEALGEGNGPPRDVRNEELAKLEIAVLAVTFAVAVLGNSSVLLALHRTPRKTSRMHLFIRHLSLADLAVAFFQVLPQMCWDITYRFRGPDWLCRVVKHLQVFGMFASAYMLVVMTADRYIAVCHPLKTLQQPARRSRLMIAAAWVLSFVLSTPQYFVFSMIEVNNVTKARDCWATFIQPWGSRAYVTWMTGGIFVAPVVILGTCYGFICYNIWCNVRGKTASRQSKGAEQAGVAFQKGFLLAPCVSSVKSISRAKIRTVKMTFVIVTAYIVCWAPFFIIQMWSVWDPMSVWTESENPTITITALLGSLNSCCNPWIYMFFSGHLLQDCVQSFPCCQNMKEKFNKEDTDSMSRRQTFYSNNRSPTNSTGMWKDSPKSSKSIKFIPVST", "UniProt P30518, whole entry": "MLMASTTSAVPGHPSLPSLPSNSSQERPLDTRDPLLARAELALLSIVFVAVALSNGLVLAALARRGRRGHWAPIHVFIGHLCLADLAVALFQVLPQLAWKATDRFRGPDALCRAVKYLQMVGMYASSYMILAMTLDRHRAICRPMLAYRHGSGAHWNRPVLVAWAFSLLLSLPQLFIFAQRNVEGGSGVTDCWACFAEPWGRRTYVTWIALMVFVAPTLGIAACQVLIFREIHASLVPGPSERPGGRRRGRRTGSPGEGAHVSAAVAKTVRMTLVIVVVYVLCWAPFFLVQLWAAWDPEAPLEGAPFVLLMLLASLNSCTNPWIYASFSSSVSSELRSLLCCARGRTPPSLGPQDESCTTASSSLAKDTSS"}, "source": "patent US10815205B2", "about": "“Amide-substituted phenyltriazole derivatives and uses thereof” (BAYER PHARMA AKTIENGESELLSCHAFT, priority 2016, dated 2020)", "key": {"human V1a receptor": {"target": "human V1a receptor (Homo sapiens, UniProt P37288)", "experiment": "Cellular in vitro assay for vasopressin receptor activity, V1a receptor cell line (aequorin luminescence)", "details": "Table 1B, comparative examples of WO 2011/104322"}, "human V2 receptor": {"target": "human V2 receptor (Homo sapiens, UniProt P30518)", "experiment": "Cellular in vitro assay for vasopressin receptor activity, V2 receptor cell line (CRE-luciferase)", "details": "read-out: IC50 hV2, Table 1B, comparative examples of WO 2011/104322"}}, "data": [{"smiles": "O=c1n(Cc2cn(-c3ccccc3C(F)(F)F)nn2)nc(-c2ccc(Cl)cc2)n1C[C@H](O)C(F)(F)F", "values": [{"measurement": "ratio IC50 hV2/hV1a", "setting": "human V1a receptor", "result": 1.568}, {"measurement": "IC50", "setting": "human V1a receptor; read-out: IC50 hV1a, human V1a cell line", "result": 139, "unit": "nM"}, {"measurement": "IC50", "setting": "human V2 receptor", "result": 218, "unit": "nM"}]}]}
